Biological target: Glycogen phosphorylase, muscle form (Oryctolagus cuniculus) (UniProt P00489)
Assay: Inhibitory concentration against glycogen phosphorylase of rabbit muscle

O=C(NCc1cccs1)c1ccc(Nc2nc3ccccc3n(CCN3CCCCC3)c2=O)cc1 [4-[3-Oxo-4-(2-piperidin-1-yl-ethyl)-3,4-dihydro-quinoxalin-2-ylamino]-N-thiophen-2-ylmethyl-benzamide]
IC50: 420 nM

Source: BindingDB's records for doi:10.1016/j.bmcl.2005.07.021 (Johnson & Johnson Pharmaceutical Research and Development, 2005)
